From article PMC8625570

Molecular target: RAC1 (aa 1-179) (human) (UniProt P63000)
Assay: SEC; analytical SEC, Superdex 200 10/300, 30 mM Tris/HCl pH 7.5, 150 mM NaCl, 5 mM MgCl2; IQGAP1^C794 and IQGAP2^C795 alone or mixed with CDC42•GppNHp or RAC1•GppNHp; fractions on Coomassie-stained SDS-PAGE; MW from a calibration curve

- stoichiometry N: 2
Substance: RAC1 (aa 1-179) (from UniProt P63000 1-179) (natural protein)
